This is a sample that favours compounds with a hit; in the whole collection about 3.7% have one here.
TCR act = activators of T cell receptors; primary human leukocytes, anti-CD3, IL-2 HTRF, 48 h; Potency, µM (top dose mostly 9.22 µM), hits mostly activators; 330,000 tested, under 10 active
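Primary human leukocytes receive a-CD3 beads and test compound and are incubated 48 hr. Secreted IL-2 is then assayed by HTRF, measuring 665nm acceptor emission after 320nm excitation of the europium donor.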
A549 tox = counter-screen for Nrf2 inhibitors: cytotoxicity in A549 cells; Potency, µM (highest dose often 46 µM), usual class: inhibitors; AID 504648; A549 ARE-Fluc cells, CellTiter-Fluor viability, 18-24 h; actives 0.16% (n = 390,000)
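A549 ARE_Fluc cells in 5% FBS OPTI-MEM were exposed to compounds in concentration-response for 18-24 h at 37 deg C. Viability was read by CellTiter-Fluor fluorescence (Ex 405/Em 525) after 30 min, before the luciferase read.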
Nrf2 inh = Nrf2 pathway inhibition | A549 ARE-Fluc reporter, luciferase luminescence, 18-24 h | Potency, µM (titrated, usually from 46 µM), most hits filed as inhibitors | actives 2.1% (n = 360,000) | AID 504444; note: nearly all actives have a fitted effect of over 60% in size
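A549 ARE_Fluc cells (5000/well, 5% FBS OPTI-MEM) pre-incubated 2 h, then treated with compounds 18-24 h at 37C/5% CO2 in concentration-response. CellTiter-Fluor viability read first; BugLite luciferase luminescence after 15 min at room temperature gives Nrf2 activity.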
miR-21 reporter = miR-21 reporter, rising signal. 340,000 tested, under 10 active. Potency, µM (highest dose often 38.3 µM). HeLa miR-21 FLuc reporter, luciferase, 48 h. AID 2288; active = well fitted rising curve with a large enough effect; inconclusive = small, poorly fitted or top-dose-only effect; inactive = no such curve, though single readings can be large or run the other way;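 further: miR-21 action dims this reporter so a rising signal means less miR-21 action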
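Using DMEM plus 10% FBS, HeLa miR-21-FLuc cells are incubated with test compounds (final up to about 40uM) for 48 hours; firefly luciferase signal is then imaged following reagent-mediated lysis.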
Nrf2 activator = activates Nrf2 signaling | AREc32 ARE-luciferase reporter (MCF7-derived line), luminescence, 24 h | Potency, µM (series often up to 46.1 µM), usual class: activators | actives 0.31% (n = 410,000); note: nearly all actives have a fitted effect of over 65% in size
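Reporter line AREc32 (ARE-Fluc), seeded overnight in OPTI-MEM with 5% FBS; compound pin-transferred, 24 hr at 37 deg C, 5% CO2; luminescent read-out.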
ClpP mod = qHTS Assay for Activators of ClpP; ATP-dependent Clp protease proteolytic subunit (Bacillus subtilis (strain 168)), P80244; purified B. subtilis ClpP, FRET peptide cleavage, 20 min; Potency, µM (top dose mostly 57.5 µM); actives 1.9% (n = 340,000); active = well fitted falling curve with a large enough effect; inconclusive = small, poorly fitted or top-dose-only effect; inactive = no such curve, though single readings can be large or run the other way; note: the source files actives as falling curves though it sought activators and does not explain the sign; nearly all actives have a fitted effect of over 65% in size
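ClpP 10 microg/mL final, pH 8 Tris/KCl buffer with BSA, glycerol, Tween-20; compound pinned in; FRET-FV substrate; RT 20 min; Ex320/Em430; ΔFRET vs ADEP 5.8 microM, DMSO, no enzyme.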
A number is an active result; – = inactive; ? = inconclusive; · = not tested or not shown. Unless noted, calls come from the whole dose curve; as a rule, active = well fitted curve in the direction sought with a large enough effect; inconclusive = small, poorly fitted or top-dose-only effect, or another doubt; inactive = no such curve, though single readings can be large; an effect the other way counts as inactive or inconclusive.

SMILES	TCR act	A549 tox	Nrf2 inh	miR-21 reporter	Nrf2 activator	ClpP mod
O=C(C1CCN(S(=O)(=O)c2ccccc2)CC1)N1CCc2ccccc21	–	–	–	–	–	–
CC(=O)Nc1cccc(S(=O)(=O)N2CCCN(S(=O)(=O)c3ccc4c(c3)OCCO4)CC2)c1	·	–	15µM	·	·	·
O=C(NCC(=O)N1CCN(S(=O)(=O)c2ccc3c(c2)OCCO3)CC1)c1ccccc1Cl	–	–	12µM	·	–	–
Cc1cccc(NC(=O)C2CCN(S(=O)(=O)c3ccc4c(c3)OCCCO4)CC2)n1	–	–	15µM	·	–	·
Cc1cccc(NC(=O)C2CCN(S(=O)(=O)c3ccc4c(c3)OCCO4)CC2)n1	–	–	?	·	–	–
O=C(NCC(=O)N1CCN(S(=O)(=O)c2ccc3c(c2)OCCO3)CC1)c1ccccc1F	–	–	–	·	–	–
O=C(C1CCN(S(=O)(=O)c2ccc3c(c2)OCCO3)CC1)N1CCc2ccccc21	–	–	15µM	–	–	–
COc1cc(CNc2ccc3[nH]c(=O)[nH]c3c2)cc(Br)c1OCC(=O)NC(C)(C)C	–	–	–	–	–	–
CCOc1cc(CNc2ccc(N3CCCCC3)cc2)cc(Br)c1OCC(=O)NC(C)(C)C	–	?	16µM	–	–	–
C=CCOc1c(Br)cc(CNc2ccc(NC(=O)CCC)cc2)cc1OCC	–	–	15µM	–	–	–
CCOc1cc(CNc2ccc(N(C)C)cc2)cc(Br)c1OCC(=O)NC(C)(C)C	–	?	?	–	–	–
COc1cc(CNc2cccc(C(=O)O)c2)cc(Br)c1OCC(=O)NC(C)(C)C	–	–	–	–	–	25µM
CCOc1cc(CNc2cccc3ccccc23)cc(Br)c1OCC(=O)NC(C)(C)C	–	–	–	–	–	8.9µM
CC(=O)Nc1ccc(S(=O)(=O)N2CCN(S(=O)(=O)c3ccc4c(c3)OCCO4)CC2)cc1	·	–	?	·	·	·
Cc1ccc(Cl)cc1N1CCN(C(=O)Cc2c(C(=O)O)c(C)cn2C)CC1	·	–	·	–	–	–
O=C(Nc1cccc(C(F)(F)F)c1)C1Cc2c(-c3ccccc3Oc3ccccc3)ccnc2O1 (configuration not stated)	·	·	·	·	–	–
COc1ccc(CCn2c(N)c(C(=O)NCc3ccco3)c3nc4ccccc4nc32)cc1	–	–	?	–	–	32µM
Nc1c(C(=O)NCc2ccco2)c2nc3ccccc3nc2n1CCc1ccccc1F	–	–	?	–	–	28µM
COCCn1c(N)c(C(=O)OCc2ccccc2)c2nc3ccccc3nc21	–	·	?	–	–	7.9µM
O=C(NCc1ccco1)c1ccc(Cn2c(SCc3ccccc3F)nc3cccnc32)cc1	·	–	?	–	–	–
CCc1nc2ccc(C(=O)NCCc3ccc(OC)c(OC)c3)cc2nc1CC	–	–	–	–	–	–
COc1ccc(CCNC(=O)c2ccc3nc(-c4ccco4)c(-c4ccco4)nc3c2)cc1OC	–	–	23µM	–	–	–
CN(C)c1c(Cl)cc(/C=C2\C=Cc3ccccc32)cc1Cl	·	·	·	·	·	–
O=C(C[n+]1cccc(Br)c1)c1ccc2ccccc2c1	·	·	·	·	·	–
COc1ccc(CCn2c(N)c(S(=O)(=O)c3cccs3)c3nc4ccccc4nc32)cc1OC	–	–	?	–	–	–
SMILES	TCR act	A549 tox	Nrf2 inh	miR-21 reporter	Nrf2 activator	ClpP mod
COc1ccc(-n2c(N)c(C(=O)NCc3ccco3)c3nc4ccccc4nc32)c(OC)c1	–	–	?	–	–	11µM
CCCNC(=O)c1c(N)n(-c2cccc(OC)c2)c2nc3ccccc3nc12	–	–	?	–	–	20µM
COc1ccc(CCn2c(N)c(C(=O)NCc3ccco3)c3nc4ccccc4nc32)cc1OC	–	?	–	–	–	28µM
CN(CC(=O)Nc1ccccc1Cl)C(=O)Cn1cnc2ccc(Cl)cc2c1=O	–	–	–	·	–	–
Cc1ccc(S(=O)(=O)Cn2nnnc2C(c2ccccc2)N2CCN(c3ncccn3)CC2)cc1 (configuration not stated)	–	–	–	–	–	–
COc1ccc(C(c2nnnn2CS(=O)(=O)c2ccc(C)cc2)N2CCN(c3ncccn3)CC2)cc1 (configuration not stated)	–	–	–	–	–	32µM
CCC(c1nnnn1CS(=O)(=O)c1ccc(C)cc1)N1CCN(c2nc3ccccc3s2)CC1 (configuration not stated)	·	–	8.2µM	–	–	–
COCCn1nnnc1C(c1ccc(OC)c(OC)c1)N1CCN(c2nc3ccccc3s2)CC1 (configuration not stated)	–	–	9.2µM	–	–	–
COc1ccccc1NC(=O)C(C)OC(=O)C(C)SCC(=O)Nc1ccc(C)cc1 (configuration not stated)	–	–	–	·	–	–
COc1cccc(Nc2ccc3cc(S(=O)(=O)N4CCC(C)CC4)ccc3n2)c1	·	–	?	–	–	–
Cn1cc(-c2csc(C(O)c3ccccc3)n2)cn1 (configuration not stated)	·	·	·	·	–	–
COc1ccc(C(=O)N2CCC2(C)C(=O)O)cc1C(F)(F)F (configuration not stated)	·	·	·	·	–	–
CN(C)c1ccc(/C=C/C=C2/C=Cc3ccccc32)cc1	·	·	·	·	·	–
CC(=O)c1c(C)[nH]c(C(=O)COc2ccc(C#N)cc2)c1C	–	–	12µM	–	–	–
COc1ccccc1OCC(=O)c1[nH]c(C)c(C(C)=O)c1C	–	–	5.2µM	–	–	–
Cc1ccc(S(=O)(=O)NC(=O)COc2cc(C)ccc2C(C)C)cc1	–	–	–	–	–	–
CC(=O)c1c(C)[nH]c(C(=O)COc2cc(C)ccc2C(C)C)c1C	–	–	7.3µM	?	–	–
COc1cc(C)ccc1OCC(=O)OCC(=O)c1[nH]c(C)c(C(C)=O)c1C	–	–	–	·	–	–
CC(=O)c1c(C)[nH]c(C(=O)COC(=O)COc2ccccc2)c1C	–	–	–	·	–	–
Cn1nc(C(C)(C)C)cc1NC(=O)Nc1cc(Cl)cc(Cl)c1	–	–	–	–	–	·
COc1cc(C(=O)Nc2nonc2-c2ccc(Cl)cc2)cc(OC)c1OC	·	–	?	?	–	–
COc1ccc(CN(C)C(=O)c2cc(-c3ccccc3)nc3ccc(C)cc23)c(OC)c1OC	–	–	–	–	–	–
Cc1c(CN(C)C(=O)c2cc(-c3ccccc3)nc3ccc(Br)cc23)cnn1C	·	–	9.2µM	–	–	–
COc1ccc2[nH]cc(/C=C/c3cc[n+](C)cc3)c2c1	–	?	10µM	–	–	–
COc1ccc2[nH]cc(C=O)c2c1	·	–	–	–	–	–

High-throughput results (PubChem)
